In patent US20040038428A1, “Protein microarrays” (priority 2000, published 2004):
Values joined by “and” are separate entries in the source; they are usually repeats but may differ in a detail not shown here. Equal values may be shown once.

Molecular target: T1, FRB domain of FRAP and FKBP12 (Homo sapiens, UniProt P42345+P62942)
T1 construct: the FRB domain of FRAP and FKBP12; made in house; host or cells: Escherichia coli
Assay: protein microarray: immobilized FRB probed with Cy5-FKBP12 with or without rapamycin
Format: binding
Settings: FRB spotted at 1 mg/ml, 1 μM rapamycin
Method: To define the concentration range under which this assay can be performed, the concentration of both FRB (the immobilized protein) and Cy5-FKBP12 (the solution-phase protein; data not shown) were varied. At high concentrations of FRB (about 1 mg/ml), the fluorescence of the spots begins to saturate. Below this, the fluorescence scales linearly with decreasing concentrations of FRB. FIGS. 1, 2, 3, 5, and 7 employ a concentration of 100 μg/ml for the protein being spotted. This concentration is readily achievable in the context of high throughput protein expression/purification and can even be achieved using recently reported in vitro transcription/translation systems (Madin et al. Proc. Natl. Acad. Sci. USA 97:559-564, 2000; incorporated herein by reference).
Much lower concentrations are needed for the solution-phase protein. In the case of Cy5-FKBP12, fluorescence of the resulting spots scales linearly with protein concentration over four orders of magnitude (see FIG. 6). Specific binding can easily be detected using as little as 150 pg/ml Cy5-FKBP12 (˜12.5 pM). […] This means that specific protein-protein interactions, once defined, may potentially be exploited to quantify protein abundance and modification in whole cells or tissues (“profiling” at the protein level). […]

concentration of solution-phase protein at which specific binding is detected: 150 pg/ml and ~12.5 pM
Substance: Cy5-FKBP12: (His)6-FKBP12 produced recombinantly in Escherichia coli, labeled with Cy5
